Results reported in ChEMBL document CHEMBL4680222, “Sensitive fluorogenic substrates for sirtuin deacylase inhibitor discovery” (Eur J Med Chem, 2020).

Sequences of proteins named here, by UniProt entry; tags and fusion partners are left off. A change or cut given only in a name is not applied to a line headed by its entry.
UniProt Q9NXA8: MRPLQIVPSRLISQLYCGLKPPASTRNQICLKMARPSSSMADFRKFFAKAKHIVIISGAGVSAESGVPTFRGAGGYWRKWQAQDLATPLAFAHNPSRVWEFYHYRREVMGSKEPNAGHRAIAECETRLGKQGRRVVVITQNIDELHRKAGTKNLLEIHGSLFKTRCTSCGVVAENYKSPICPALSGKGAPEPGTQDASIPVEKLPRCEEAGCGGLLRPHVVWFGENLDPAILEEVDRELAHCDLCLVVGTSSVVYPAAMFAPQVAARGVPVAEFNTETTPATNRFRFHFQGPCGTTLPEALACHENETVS

Target: NAD-dependent protein deacylase sirtuin-5, mitochondrial (Homo sapiens, UniProt Q9NXA8)
Assay: Binding affinity to human N-terminal His-tagged SIRT5 (34 to 302 residues) expressed in Escherichia coli at 600 uM by isothermal titration calorimetry

- Kd: 4.63 µM
Structure (SMILES): CC(C)c1ccccc1Cc1cc(C(=O)Nc2ccc(S(=O)(=O)c3ccccc3C(C)(C)C)cc2)c(O)c(O)c1O
